Binding of CDR-mutated scFvs to a peptide of the spike HR2 region

Values reported by Engelhart et al. 2022, doi:10.1038/s41597-022-01779-4 (FLAb copy).

Antigen: PDVDLGDISGINAS, a 14-residue peptide of the SARS-CoV-2 spike HR2 region.

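The starting antibody came from a phage panning campaign against this peptide. In library AAYL49, one, two or three CDR residues were substituted; doubles and triples were drawn at random. The assay is AlphaSeq: two haploid yeast populations carry antibody and antigen on their surface. After mating in shaken culture at 30 °C for 16 h, diploids were selected and their barcode pairs sequenced. Scores were corrected for input abundance and mapped to Kd with protein pairs of known affinity run in the same pool. There are three technical replicates.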

Each scFv is VH, the linker GGGGSGGGGSGGGGS, VL, as in the parent Ab-14, and differs from it in the CDRs of the heavy chain only.
VH: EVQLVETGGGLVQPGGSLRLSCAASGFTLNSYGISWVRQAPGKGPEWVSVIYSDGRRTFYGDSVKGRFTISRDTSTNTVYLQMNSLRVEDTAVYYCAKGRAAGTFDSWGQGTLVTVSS
VL: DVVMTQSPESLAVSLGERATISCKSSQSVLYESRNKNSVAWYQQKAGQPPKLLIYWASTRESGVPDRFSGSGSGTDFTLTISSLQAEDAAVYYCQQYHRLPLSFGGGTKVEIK

Each variant is given by its three heavy chain CDRs, as the data file delimits them; those of the parent are GFTLNSYGIS, VIYSDGRRTFYGDSVK, GRAAGTFDS.
Values are log10 of the apparent Kd in nM; lower means stronger binding.
"nd" means that the variant was in the library but no mating with the target was seen in that replicate; the authors take this as a sign of poor binding, and no number exists.
Three control strains display no target. For library AAYL49, 15% of the pairings with them gave a signal, with a median of 4.06 and one signal in twenty below 2.83, so weak values seen in few replicates may be background. For each scFv, signals with the empty controls are counted beside the result, with their mean in brackets.
Parent in this assay: reference entry 0.65, copy in this library 4.11 (one replicate of three).

| # | CDR-H1 | CDR-H2 | CDR-H3 | replicates, log10 nM | empty controls |
|---|---|---|---|---|---|
| 1 | GFTLNTYGIS | LIYQDGRRTFYGDSVK | GRAAGTFDS | nd nd 4.49 | 3 of 9 (3.74) |
| 2 | GFTLNSYGIS | VIYSDGRRTFYGLSVK | GRAAGTMDS | nd 2.73 nd | 0 of 9 |
| 3 | GFTLNSYGIS | VIYSDGRRTFYGDSVK | GRSMGTVDS | 5.27 nd nd | 4 of 9 (4.08) |
| 4 | GFTLNSYGIS | QIYSDGRLTFYGDSVK | GRAAGQFDS | nd nd nd | 0 of 9 |
| 5 | GFYLNSYGIS | VIYSDGRRGFYGDQVK | GRAAGTFDS | nd nd 5.80 | 0 of 9 |
| 6 | GFTLNSYGIS | VIYSDGRRTHYGDCVK | GRAATTFDS | nd nd nd | 1 of 9 (3.24) |
| 7 | GFTLNSYGIK | VIYSDGQRTFYGDSVF | GRAAGTFDS | 6.36 nd 5.17 | 2 of 9 (4.14) |
| 8 | GFTKNSYGIS | VIYSDGRRTFYGDWVK | GRAACTFDS | nd nd nd | 1 of 9 (2.79) |
| 9 | GFTLNSYGIS | VGYSDGRQTFIGDSVK | GRAAGTFDS | 3.72 nd nd | 0 of 9 |
| 10 | GFTLFSYGIS | VIYSDPRRTFYGDSVK | GRAAGTFDS | nd nd nd | 0 of 9 |
| 11 | GFTHNSYGIS | VIYSDGRRTFYGDSVK | GQQAGTFDS | nd 1.93 nd | 0 of 9 |
| 12 | GFTLNPPGIS | VIYSDGRRTFYGDSVK | GRAAGTFDS | 6.65 4.25 4.93 | 2 of 9 (4.19) |
| 13 | GFTLNSYGIS | VIYWDGRRTFYGDSVK | GRAAGTFDS | 3.29 1.45 2.01 | 1 of 9 (2.35) |
| 14 | GFTLNSYGIS | VLYSDGRRTFYGDSVK | GRCANTFDS | 1.66 1.39 2.32 | 0 of 9 |
| 15 | GFTLNSYGIH | VIYSDGRRTSQGDSVK | GRAAGTFDS | nd 3.69 nd | 0 of 9 |
| 16 | GFTLYSYGIS | VIYSDGRRTFYGDSVK | GRAAITFDS | 4.00 nd nd | 2 of 9 (3.90) |
| 17 | GFTLNSYGIS | VIYSDGRRTCYGDSVK | GRGAGTIDS | nd nd nd | 0 of 9 |
| 18 | GNTRNSYGIS | VIYSDGRRTFYGDSVK | GRAAGTFDS | nd nd nd | 1 of 9 (3.29) |
| 19 | GFTLNSYGIS | VINSDGHRTFYGDSVK | GRAAGTFPS | nd nd nd | 1 of 9 (3.64) |
| 20 | GFTLNSYGIS | VIYSDGRRTFYGDSVK | GIGAGTFDS | 0.67 1.08 1.17 | 5 of 9 (4.42) |
| 21 | GFTLNSYGIS | VIYSDGNRTFYGDSVK | GYAAGLFDS | 4.67 4.29 5.77 | 2 of 9 (4.15) |
| 22 | GFTLNSYSIS | VIYSDGRRTFMGDSVK | GRAAGWFDS | nd nd nd | 0 of 9 |
| 23 | GFTLNWYGIS | VIYSDGMRTFYGDSVK | GRAAGTFDP | nd nd nd | 0 of 9 |
| 24 | GFTLNSYGIS | VIYSGGRRTFYGDSVK | KRAAGTFDS | nd 4.29 nd | 0 of 9 |
| 25 | GFTNNSYGIS | VIYSDGRRTFYGDSVK | GRAFGTFDM | 5.66 nd 3.98 | 2 of 9 (4.22) |
| 26 | GFTLNSTGCS | VIYSDGRRTNYGDSVK | GRAAGTFDS | nd nd nd | 1 of 9 (4.03) |
| 27 | GFTLNSFCIS | VIYSDGRRTFYGDSVK | GRAAGTFDN | nd 4.29 nd | 2 of 9 (3.30) |
| 28 | GFTLNSYGIS | VIYSDGRRVFYGDYVK | GRAAGTFDS | nd 5.06 nd | 1 of 9 (3.20) |
| 29 | GFTLNSYGIS | VIYSDGRRTFYGDSVK | GREAPTFDS | 4.93 3.86 2.53 | 0 of 9 |
| 30 | GFTLQSYGIS | VIRSDGRRTFYGDSVK | GRAAGQFDS | nd nd nd | 0 of 9 |
| 31 | GFTGNSYGIS | VIYSDGRRTFYGDSVK | GRAAGCFDN | nd nd nd | 1 of 9 (2.38) |
| 32 | GFTLWSFGIS | VIYSDGRRTFYKDSVK | GRAAGTFDS | 1.73 1.93 2.27 | 0 of 9 |
| 33 | GWTLNSYGIS | VIYSDGRRTFQGDSVK | GRAAGTFDS | 3.94 4.78 nd | 2 of 9 (3.26) |
| 34 | GFMLNSYGIS | DIYSAGRRTFYGDSVK | GRAAGTFDS | nd 2.77 nd | 1 of 9 (2.75) |
| 35 | TFTLNSYGIS | VIYSDGRRTFYWDSVK | GRALGTFDS | nd nd nd | 1 of 9 (2.12) |
| 36 | EFTLNSYGIS | VIYEDGRRTFYGDSVK | GWAAGTFDS | nd nd 3.75 | 3 of 9 (4.42) |
| 37 | GFTLNSYGCS | VIYSDGRRTFYGDSVK | CRAAGTFDN | nd nd nd | 0 of 9 |
| 38 | GITLNSYDIS | VIYSDGRRLFYGDSVK | GRAAGTFDS | 2.10 2.05 2.15 | 0 of 9 |
| 39 | GFTLNSYGIS | VIYSDGRITFYGDSVK | LRAAGRFDS | nd nd nd | 3 of 9 (4.00) |
| 40 | GPTLNSAGIS | VIYSDGRRTFSGDSVK | GRAAGTFDS | nd 4.86 nd | 0 of 9 |
| 41 | MFTLNSYGIS | HIYSDGRRTFYGDSVK | GRAACTFDS | nd nd nd | 0 of 9 |
| 42 | GFTLNSYGIS | VIYPDGRRTNYGDSVK | GRAAGTFDS | nd nd nd | 1 of 9 (3.86) |

For reference, 7 entries of the list once more:

{"CDR-H1": "GFTHNSYGIS", "CDR-H2": "VIYSDGRRTFYGDSVK", "CDR-H3": "GQQAGTFDS", "replicates, log10 nM": "nd 1.93 nd", "empty controls": "0 of 9"}
{"CDR-H1": "GFTLNTYGIS", "CDR-H2": "LIYQDGRRTFYGDSVK", "CDR-H3": "GRAAGTFDS", "replicates, log10 nM": "nd nd 4.49", "empty controls": "3 of 9 (3.74)"}
{"CDR-H1": "EFTLNSYGIS", "CDR-H2": "VIYEDGRRTFYGDSVK", "CDR-H3": "GWAAGTFDS", "replicates, log10 nM": "nd nd 3.75", "empty controls": "3 of 9 (4.42)"}
{"CDR-H1": "GFTLNSYGIS", "CDR-H2": "VGYSDGRQTFIGDSVK", "CDR-H3": "GRAAGTFDS", "replicates, log10 nM": "3.72 nd nd", "empty controls": "0 of 9"}
{"CDR-H1": "GFTLNSYGIS", "CDR-H2": "VLYSDGRRTFYGDSVK", "CDR-H3": "GRCANTFDS", "replicates, log10 nM": "1.66 1.39 2.32", "empty controls": "0 of 9"}
{"CDR-H1": "GFTLNSYGIS", "CDR-H2": "VIYSDGNRTFYGDSVK", "CDR-H3": "GYAAGLFDS", "replicates, log10 nM": "4.67 4.29 5.77", "empty controls": "2 of 9 (4.15)"}
{"CDR-H1": "GFTGNSYGIS", "CDR-H2": "VIYSDGRRTFYGDSVK", "CDR-H3": "GRAAGCFDN", "replicates, log10 nM": "nd nd nd", "empty controls": "1 of 9 (2.38)"}